Measured values from ChEMBL document CHEMBL5523685, “Development of UTX-143, a selective sodium-hydrogen exchange subtype 5 inhibitor, using amiloride as a lead compound” (Bioorg Med Chem, 2024).

Amino acid sequences for entries named in this document (tags omitted).
UniProt P26431, whole entry: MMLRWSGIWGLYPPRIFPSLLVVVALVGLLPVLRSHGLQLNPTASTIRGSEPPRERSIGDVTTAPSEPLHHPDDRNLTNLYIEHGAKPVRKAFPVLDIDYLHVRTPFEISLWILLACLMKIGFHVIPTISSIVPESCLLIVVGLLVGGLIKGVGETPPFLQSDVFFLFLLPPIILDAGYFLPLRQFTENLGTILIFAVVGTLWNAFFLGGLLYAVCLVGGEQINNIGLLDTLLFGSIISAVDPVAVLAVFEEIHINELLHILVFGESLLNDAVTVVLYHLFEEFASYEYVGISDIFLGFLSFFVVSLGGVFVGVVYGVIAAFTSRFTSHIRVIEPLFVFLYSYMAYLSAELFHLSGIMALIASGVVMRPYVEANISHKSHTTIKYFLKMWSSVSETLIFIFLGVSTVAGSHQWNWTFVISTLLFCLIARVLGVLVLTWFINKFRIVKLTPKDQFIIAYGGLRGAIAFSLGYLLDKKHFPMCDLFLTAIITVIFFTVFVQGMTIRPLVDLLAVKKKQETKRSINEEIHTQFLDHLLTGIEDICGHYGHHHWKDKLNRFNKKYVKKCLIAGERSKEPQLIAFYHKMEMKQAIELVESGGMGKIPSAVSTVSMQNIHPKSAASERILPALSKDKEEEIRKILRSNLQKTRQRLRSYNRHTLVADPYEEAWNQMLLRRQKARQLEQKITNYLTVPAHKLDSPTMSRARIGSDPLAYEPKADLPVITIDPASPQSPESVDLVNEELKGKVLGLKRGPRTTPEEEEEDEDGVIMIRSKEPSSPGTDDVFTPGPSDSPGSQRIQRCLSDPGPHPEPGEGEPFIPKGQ

Key:
Assay type in all cases: cell-based
[1] = target: Sodium/hydrogen exchanger 1 (Rattus norvegicus) (UniProt P26431); experiment: Inhibition of rat NHE1 expressed in Chinese hamster ovary cells (AP-1) at >10 uM measured after 9 mins by BCECF-AM staining based NH4Cl pre-pulse method relative to control
[2] = target: Sodium/hydrogen exchanger 1 (Rattus norvegicus) (UniProt P26431); experiment: Inhibition of rat NHE1 expressed in Chinese hamster ovary cells (AP-1) at >100 uM measured after 9 mins by BCECF-AM staining based NH4Cl pre-pulse method relative to control
[3] = target: Sodium/hydrogen exchanger 1 (Rattus norvegicus) (UniProt P26431); experiment: Inhibition of rat NHE1 expressed in Chinese hamster ovary cells (AP-1) at >50 uM measured after 9 mins by BCECF-AM staining based NH4Cl pre-pulse method relative to control
[4] = target: Sodium/hydrogen exchanger 1 (Rattus norvegicus) (UniProt P26431); experiment: Inhibition of rat NHE1 expressed in Chinese hamster ovary cells (AP-1) at >300 uM measured after 9 mins by BCECF-AM staining based NH4Cl pre-pulse method relative to control
[5] = target: Sodium/hydrogen exchanger 1 (Rattus norvegicus) (UniProt P26431); experiment: Inhibition of rat NHE1 expressed in Chinese hamster ovary cells (AP-1) at >500 uM measured after 9 mins by BCECF-AM staining based NH4Cl pre-pulse method relative to control

inhibition [2] [%]	inhibition [5] [%]	Compound	also measured
28	–	CN(CCO)c1nc(N)c(C(=O)NC(=N)N)nc1-c1ccc(Cl)cc1Cl	–
–	43	Cc1cccc(-c2nc(C(=O)NC(=N)N)c(N)nc2N(C)CCO)c1	–
41	–	CN(CCO)c1nc(N)c(C(=O)NC(=N)N)nc1-c1ccc(Cl)cc1	–

More lines, now with the values behind:

Compound	inhibition [2] [%]	inhibition [5] [%]	also measured
CN(CCO)c1nc(N)c(C(=O)NC(=N)N)nc1-c1ccc(C(F)(F)F)cc1	–	–	inhibition [1]: 21%
CN(CCO)c1nc(N)c(C(=O)NC(=N)N)nc1-c1ccc(Br)cc1	–	–	inhibition [3]: 30%
CN(CCO)c1nc(N)c(C(=O)NC(=N)N)nc1-c1ccc(C(F)(F)F)cc1C(F)(F)F	–	–	inhibition [4]: 48%
CN(CCO)c1nc(N)c(C(=O)NC(=N)N)nc1-c1ccccc1	–	44	–
CN(CCO)c1nc(N)c(C(=O)NC(=N)N)nc1Cl	–	2.8	–
CCCc1ccc(-c2nc(C(=O)NC(=N)N)c(N)nc2N(C)CCO)cc1	20	–	–
